Source: ChEMBL document CHEMBL5365446, “Discovery, Structure-Activity Relationships, and In Vivo Activity of Dihydropyridone Agonists of the Bile Acid Receptor TGR5” (J Med Chem, 2023)

Target: T1, G-protein coupled bile acid receptor 1 (Mus musculus) (UniProt Q80SS6)
T1 sequence (whole entry): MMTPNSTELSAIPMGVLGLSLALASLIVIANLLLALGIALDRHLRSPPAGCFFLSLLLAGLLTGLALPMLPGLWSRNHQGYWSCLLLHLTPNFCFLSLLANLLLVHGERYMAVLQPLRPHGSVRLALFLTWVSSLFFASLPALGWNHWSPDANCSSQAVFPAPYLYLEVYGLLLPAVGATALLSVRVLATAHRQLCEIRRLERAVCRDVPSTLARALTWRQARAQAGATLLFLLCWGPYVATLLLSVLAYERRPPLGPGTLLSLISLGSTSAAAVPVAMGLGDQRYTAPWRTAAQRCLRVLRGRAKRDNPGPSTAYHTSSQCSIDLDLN
Assay: Ex vivo agonist activity at TGR5 in mouse colonoids assessed as increase in GLP-1 secretion incubated for 2 hrs by ELISA method
Format: functional, tissue-based
Details: Colon organoid, dose <= 50.0 µM

- Activity: Dose-Dependent Effect
SMILES: COc1ccccc1COC(=O)C1=C(C)N(C[C@H]2CCCO2)C(=O)C[C@H]1c1ccc(Cl)nc1
